Assay: Time-course stability of spiked peptide hormones in plasma (MALDI-TOF MS and/or ELISA)
Details: for half-life at 0.4 μM: human, plasma, t ½, RT (24 ±1°C), MALDI-TOF MS only, spiked ~0.4 μM, 0-96 h, peak ratio to control peptide, first-order
Experimental: For whole blood, the tests were carried out right after collection. […] For serum samples, the tubes were allowed to clot at RT for 60 minutes and then centrifuged under the same conditions as for plasma tubes. The collected plasma and serum samples were either used immediately or frozen immediately at -80°C until later usage.
The spiked samples were incubated in a temperature-controlled chamber at RT (25 ± 1°C) or on ice. […] For a semi-quantitative measurement, an appropriate control peptide was also included in the quenching solution. […] The clear supernatants were dried in a CentriVap Concentrator (Labconco, Kansas City, MO); the dried powders were then re-suspended in 10% ACN, 0.1% TFA solution, followed by Zip-Tip C18 extraction. A 1.0 μL aliquot of the eluted peptide solution was mixed with 1.0 μL of α-Cyano-4-hydroxycinnamic acid (CHCA:10 mg/mL in 50% ACN solution) as the matrix, and 1.5 μL mixture was spotted onto a MALDI target, air-dried, and analyzed by MALDI-TOF MS (Ultraflex II, Bruker Daltonics Inc., Billerica, MA).
Sample preparation procedures for Ab-based stability studies were similar to those in the time-course MALDI-TOF MS analysis. […] All Ab-based analyses were carried out with either individual or pooled samples from 3–4 subjects and with three replicates of each.
Finally, the plate was read at an excitation/emission wavelength of 355 nm/460 nm in a plate reader purchased from Tecan US (Morrisville, NC). […] The absorbance of each sample was measured at 450 nm and 590 nm in the plate reader.

- t½ (P800 plasma kept at 4°C, individual or pooled samples): greater than 96 hours
- half-life at 0.4 μM (EDTA plasma, range = different individuals): 20.6 h
- half-life at 0.4 μM (P800 plasma (protease inhibitors)): > 96 h
SMILES: CC[C@H](C)[C@H](NC(=O)[C@H](CO)NC(=O)[C@H](Cc1ccc(O)cc1)NC(=O)[C@H](CC(=O)O)NC(=O)[C@H](CO)NC(=O)[C@@H](NC(=O)[C@H](Cc1ccccc1)NC(=O)[C@@H](NC(=O)CNC(=O)[C@H](CCC(=O)O)NC(=O)[C@H](C)NC(=O)[C@@H](N)Cc1ccc(O)cc1)[C@@H](C)O)[C@@H](C)CC)C(=O)N[C@@H](C)C(=O)N[C@@H](CCSC)C(=O)N[C@@H](CC(=O)O)C(=O)N[C@@H](CCCCN)C(=O)N[C@H](C(=O)N[C@@H](Cc1c[nH]cn1)C(=O)N[C@@H](CCC(N)=O)C(=O)N[C@@H](CCC(N)=O)C(=O)N[C@@H](CC(=O)O)C(=O)N[C@@H](Cc1ccccc1)C(=O)N[C@H](C(=O)N[C@@H](CC(N)=O)C(=O)N[C@@H](Cc1c[nH]c2ccccc12)C(=O)N[C@@H](CC(C)C)C(=O)N[C@@H](CC(C)C)C(=O)N[C@@H](C)C(=O)N[C@@H](CCC(N)=O)C(=O)N[C@@H](CCCCN)C(=O)NCC(=O)N[C@@H](CCCCN)C(=O)N[C@@H](CCCCN)C(=O)N[C@@H](CC(N)=O)C(=O)N[C@@H](CC(=O)O)C(=O)N[C@@H](Cc1c[nH]c2ccccc12)C(=O)N[C@@H](CCCCN)C(=O)N[C@@H](Cc1c[nH]cn1)C(=O)N[C@@H](CC(N)=O)C(=O)N[C@H](C(=O)N[C@H](C(=O)N[C@@H](CCC(N)=O)C(=O)O)[C@@H](C)O)[C@@H](C)CC)C(C)C)[C@@H](C)CC [GIP(1–42), glucose-dependent insulinotropic polypeptide]
